# Values of other authors as cited in US10801027B2, “Inhibitors of SRSF1 to treat neurodegenerative disorders” (University of Sheffield, priority 2016, dated 2020).
# Conditions: ALS patients; cited from earlier work
smiles,measurement,value
Nc1nc2ccc(OC(F)(F)F)cc2s1 [riluzole],prolongation of survival,approximately 3 months
